Assay results from EP0136586A2, “Novel corticoid derivatives and process for production thereof” (priority 1983, dated 1985).

Tested on: thymus gland
Settings: rat, in vivo, sc, 11520 min
Procedure: 2) Experiment on thymolytic action
The compounds to be tested are dissolved in a liquid consisting of croton oil : cotton seed oil : ethanol = 1:89:10 and the solution is used for injection.
The rats are anesthesized by inhalation of ether and 20 ml of air are subcutaneously injected into hypodermic organ at the back of the rats using a thin injection needle to form an oval-shaped air cavity. After the rats recovered from anesthesia they are kept on normal food and water. At 8th days after injection, rats are killed by depletion and dissected. The thymus gland is taken out and the wet weight is measured. Thymus weights obtained on the test compounds are divided with those obtained on control, and thymus gland atrophy rate is obtained.
In each of the experiments on anti-inflammatory activity and thymolytic action, clobetasol 17-propionate and betamethasone 17,21-dipropionate are used standard compounds and anti-inflammatory activity ratio and thymolytic activity ratio against clobetasol 17-propionate are calculated using linear regression parallel test method.

Substance: 21-chloro-9a-fluoro-16a-methyl-l,4-pregnadiene-11β,17α-diol-3,6,20-trione 17a-methyl carbonate [Example 8]
- Thymolytic activity ratio (B): 0.092
